Data published in PubChem BioAssay AID2462 (Broad Institute, 2010).
This is a selection; strong and weak results do not stand in their true shares. Calls of active or inactive are those of the source.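 Rule for the calls: active = over half of replicate activation scores above 10%, or exactly half above 10 with the replicate mean above 10; inconclusive = replicate mean below 10 yet half the replicates above 10; inactive = over half of replicates below 10.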

Experiment: inducers of caspase signal in A1-primed MEFs – cell-based, luminescence, HTS, A1 inhibitor project, primary screen (AID 2462)
Conditions: MEF A1-2A-BIM cells, Caspase-Glo 3/7 luminescence, 3 h; stronger effect = higher value; percent of clofoctol response, vehicle zero; concentration not given here
With `O=C(O)c1cccc(Nc2c([N+](=O)[O-])cc([N+](=O)[O-])cc2[N+](=O)[O-])c1` the caspase activation was inactive: 0.815%. With `CS(=O)(=O)c1cc([N+](=O)[O-])c2no[n+]([O-])c2c1` the caspase activation was inactive: -0.418%. With `Nc1ccccc1[As](=O)(O)c1ccccc1` the caspase activation was inactive: 0.0215%. In the case of `O=C(O)COc1ccc([As](=O)(O)O)cc1[N+](=O)[O-]`, the caspase activation was inactive: 1.36%. For `Nc1cccc2c([As](=O)(O)O)cccc12`, the caspase activation was inactive: -0.546%. With `Cc1ccc(NCCc2c([N+](=O)[O-])cc([N+](=O)[O-])cc2[N+](=O)[O-])cc1` the caspase activation was inactive: -0.0831%. For `Cc1cc(C)cc(OP(C)(=O)Nc2ccccn2)c1` (stereo unspecified), the caspase activation was inactive: 0.429%. For `CP(=O)(Nc1cccc(Br)c1)Oc1ccccc1` (stereo unspecified), the caspase activation was inactive: 1.41%. With `Cc1ccc(C)c(NP(C)(=O)Oc2ccccc2)c1` (stereo unspecified) the caspase activation was inactive: 0.352%. With `CCCOP(=S)(Nc1nc(N)cc(=O)[nH]1)OCCC` the caspase activation was inactive: -0.347%. For `CCOP(=O)(Nc1cccc2ccccc12)OCC`, the caspase activation was inactive: 0.796%. For `O=C(OC1CN2CCC1CC2)c1ccc(Cl)cc1` (stereo unspecified), the caspase activation was inactive: -1.02%. In the case of `CS(=O)(=O)c1ccc(Cl)c(NC(=O)COC(=O)C(O)(c2ccccc2)c2ccccc2)c1`, the caspase activation was inactive: -0.231%. In the case of `COc1ccccc1OP(C)(=O)Nc1cccc(Br)c1` (stereo unspecified), the caspase activation was inactive: 0.222%. In the case of `O=[As](O)(O)c1cccnc1`, the caspase activation was inactive: 0.566%. With `COc1cc(C(=O)NCC2(N3CCOCC3)CCCCC2)cc(Cl)c1OC(C)C` the caspase activation was inactive: 0.0148%. With `Cc1cc(C)cc(OP(C)(=O)Nc2ccc(C)cc2C)c1` (stereo unspecified) the caspase activation was inactive: 0.118%. For `Cc1cccc(OCC(=O)OC2CN3CCC2CC3)c1` (stereo unspecified), the caspase activation was inactive: 0.583%. With `O=[As](O)(c1cccc(O)c1)c1cccc(O)c1` the caspase activation was inactive: -0.642%. In the case of `CCOC(=O)c1ccc(NP(C)(=O)Oc2cc(C)cc(C)c2)cc1` (stereo unspecified), the caspase activation was inactive: -0.155%. For `COc1ccc(N/C(=N/P(=O)(N2CCOCC2)N2CCOCC2)N2CCOCC2)cc1`, the caspase activation was inactive: -0.374%. For `Cc1c2c(nc3ccccc13)SC(C(Cl)Cl)C2` (stereo unspecified), the caspase activation was inactive: -1.05%. In the case of `CCN(CC)CCCOC(=O)C(O)(c1ccccc1)c1ccccc1`, the caspase activation was inactive: 0.078%. With `Cc1cc(=O)[nH]c(N[N+](=O)[O-])n1` the caspase activation was inactive: -0.259%. For `O=C(OC1CN2CCC1CC2)C12CC3CC(CC(C3)C1)C2` (stereo unspecified), the caspase activation was inactive: -0.106%. With `COc1cc(I)ccc1[As](=O)(O)O` the caspase activation was inactive: 0.591%. With `COc1ccc2nc(NP(=O)(c3ccccc3)c3ccccc3)sc2c1` the caspase activation was inactive: 0.104%. For `ClCCSc1nnc(-c2cccnc2)o1`, the caspase activation was inactive: -1.12%. With `CCOC(=O)c1ccc(NP(C)(=O)Oc2ccccc2)cc1` (stereo unspecified) the caspase activation was inactive: -0.588%. With `CC(C)c1ccc(OP(=O)(Nc2ccccn2)Oc2ccccc2F)cc1` (stereo unspecified) the caspase activation was inactive: -0.276%. For `Cc1ccc(NP(C)(=O)Oc2ccccc2)c(C)c1` (stereo unspecified), the caspase activation was inactive: -0.408%. In the case of `COc1ccccc1OP(C)(=O)Nc1ccc(C)cc1` (stereo unspecified), the caspase activation was inactive: 1.05%. In the case of `COc1ccc(OP(C)(=O)Nc2cccc(F)c2)cc1` (stereo unspecified), the caspase activation was inactive: 0.241%. For `O=[N+]([O-])c1cc([N+](=O)[O-])c(-c2ccn[nH]2)s1`, the caspase activation was inactive: 0.149%. For `COc1ccccc1OP(C)(=O)Nc1cc(Cl)ccc1C` (stereo unspecified), the caspase activation was inactive: -0.285%. In the case of `CC(C)NC(=O)NP(=O)(Oc1ccccc1)Oc1ccccc1`, the caspase activation was inactive: -0.6%. In the case of `CCN(CC)C(=S)SC(NC=O)C(Cl)(Cl)Cl` (stereo unspecified), the caspase activation was inactive: 0.614%. With `Cc1cc(C)cc(OP(C)(N)=O)c1` (stereo unspecified) the caspase activation was inactive: -0.0787%. With `O=[N+]([O-])c1cc([N+](=O)[O-])c(Nc2cccnc2)c([N+](=O)[O-])c1` the caspase activation was inactive: -0.897%. For `COc1cc(C(=O)NCC2(N3CCOCC3)CCCCC2)ccc1OCC(C)C`, the caspase activation was inactive: -2.59%. In the case of `C[As](=O)(O)c1cccc(C(=O)O)c1`, the caspase activation was inactive: -0.106%. With `O=[As](O)(c1ccc(O)cc1)c1ccccc1O` the caspase activation was inactive: -0.784%. In the case of `Cc1cccc(C)c1OP(C)(N)=O` (stereo unspecified), the caspase activation was inactive: -0.531%. With `Cc1ccc(OP(=O)(Nc2ccc([N+](=O)[O-])cn2)Oc2ccc(C)cc2)cc1` the caspase activation was inactive: 3.06%. With `CC(C)(C)c1ccc(OP(C)(=O)Nc2ccc(SC(F)(F)F)cc2)cc1` (stereo unspecified) the caspase activation was inactive: 0.534%. In the case of `O=[N+]([O-])c1ccc2c(c1)C=Nc1ccccc1O2`, the caspase activation was inactive: -0.114%.
